# Source: US20240366775A1, “HUMAN TRANSFERRIN RECEPTOR BINDING ANTIBODY-PEPTIDE CONJUGATE” (PEPTIDREAM INC., priority 2021, published 2024)
# What was measured:
# [1] = ELISA no-target control wells (non-specific binding of antibodies and antibody-peptide conjugates); settings: sample at 100 nM, no target immobilized
# Description: Random biotinylated PD-1 was added to IMMOBILIZER STREPTAVIDIN F96 clear (NUNC, Cat. No. 436014) at 1 μmol per one well and incubated at 4° C. overnight to perform solidification. The plate was washed with 900 μL of PBST in a plate washer (TECAN, HydroSpeed). 300 μL of 1% Block Ace (KAC Co., Ltd., Cat. No. UK-B80) was added per one well and incubated at room temperature for 90 minutes to perform blocking treatment. The plate was washed with 900 μL of PBST in the plate washer. […] The plate was washed with 900 μL of PBST in the plate washer. 50 μL of Goat Anti-Human IgG H&L (HRP) (Abcam, Cat. No. ab97165) diluted 50,000 times with PBST-0.1% Block Ace solution was added and incubated at room temperature for 45 min. The plate was washed with 900 μL of PBST in the plate washer. […] The absorbance at 450 nm was measured in a plate reader (Enspir (trademark), Perkin Elmer).
# Random biotinylated TfR was added to IMMOBILIZER STREPTAVIDIN F96 clear (NUNC, Cat. No. 436014) at 1 μmol per one well and incubated at 4° C. overnight to perform solidification. […] The absorbance at 450 nm was measured in a plate reader (Enspir (trademark), Perkin Elmer).
# [2] = Test substance concentration in tissue (brain migration), hTfR-KI mouse; assay type: in vivo, hTfR-KI mice; settings: Example 7-1, tail vein 5 mg/kg, 6 and 24 hours, heart, lung, liver, spleen, kidney, quadriceps muscle, FIG. 2-2
# Description: Blood was drawn from the tail vein after 1 and 3 hours from administration (2 mice/time point). After 6 and 24 hours from administration, mice were anesthetized with isoflurane, blood was drawn from the right ventricle, and then perfused with saline from the left ventricle for 4 to 5 min for blood removing treatment. Blood was collected using an EDTA-2K-treated needle and syringe, and the collected blood was kept on ice until it was separated into plasma. After blood removing treatment, brains were harvested and divided into left and right portions, and the left brain was embedded in a freeze-embedding agent (OCT compound, Sakura Finetek Co., Ltd.) for immunostaining and a frozen block was prepared. The right brain, heart, lung, liver, spleen, kidney, and quadriceps muscle were collected for measurement of test substance concentrations in tissues, weighed, flash-frozen in liquid nitrogen, and stored at −70° C. or less. […]
# (§1) To Strept Avidin plate (Meso Scale Diagnostics, LLC), 150 μL/well of Blocker Casein in PBS (Thermo Fisher Scientific, Inc.) was added and shaken (26° C., 500 rpm) for 60 min in a plate shaker (Biosan) to perform blocking treatment. […] The concentration of each test substance in the samples were calculated by adding 150 μL/well of 2×Read Buffer T to each Strept Avidin plate and measuring with a plate reader (Sector S600, Meso Scale Diagnostics, LLC).
# [3] = Test substance concentration in plasma, hTfR-KI mouse; assay type: in vivo, hTfR-KI mice; settings: Example 7-1, tail vein 5 mg/kg, 1, 3, 6 and 24 hours, FIG. 2-1
# Description: Blood was drawn from the tail vein after 1 and 3 hours from administration (2 mice/time point). After 6 and 24 hours from administration, mice were anesthetized with isoflurane, blood was drawn from the right ventricle, and then perfused with saline from the left ventricle for 4 to 5 min for blood removing treatment. Blood was collected using an EDTA-2K-treated needle and syringe, and the collected blood was kept on ice until it was separated into plasma. After blood removing treatment, brains were harvested and divided into left and right portions, and the left brain was embedded in a freeze-embedding agent (OCT compound, Sakura Finetek Co., Ltd.) for immunostaining and a frozen block was prepared. The right brain, heart, lung, liver, spleen, kidney, and quadriceps muscle were collected for measurement of test substance concentrations in tissues, weighed, flash-frozen in liquid nitrogen, and stored at −70° C. or less.
# as §1
"Abs450 nm at 100 nM, No-target [1]",Substance,detection in tissues [2],"concentration in plasma, time course [3]"
0.0465,cetuximab,,
0.0425,trastuzumab,detected in all tissues,detected in plasma at all time points evaluated and showed biphasic changes in plasma concentrations
